{"sequences": {"note": "Amino acid sequences for entries named in this document (tags omitted).", "UniProt Q9UIF8, whole entry": "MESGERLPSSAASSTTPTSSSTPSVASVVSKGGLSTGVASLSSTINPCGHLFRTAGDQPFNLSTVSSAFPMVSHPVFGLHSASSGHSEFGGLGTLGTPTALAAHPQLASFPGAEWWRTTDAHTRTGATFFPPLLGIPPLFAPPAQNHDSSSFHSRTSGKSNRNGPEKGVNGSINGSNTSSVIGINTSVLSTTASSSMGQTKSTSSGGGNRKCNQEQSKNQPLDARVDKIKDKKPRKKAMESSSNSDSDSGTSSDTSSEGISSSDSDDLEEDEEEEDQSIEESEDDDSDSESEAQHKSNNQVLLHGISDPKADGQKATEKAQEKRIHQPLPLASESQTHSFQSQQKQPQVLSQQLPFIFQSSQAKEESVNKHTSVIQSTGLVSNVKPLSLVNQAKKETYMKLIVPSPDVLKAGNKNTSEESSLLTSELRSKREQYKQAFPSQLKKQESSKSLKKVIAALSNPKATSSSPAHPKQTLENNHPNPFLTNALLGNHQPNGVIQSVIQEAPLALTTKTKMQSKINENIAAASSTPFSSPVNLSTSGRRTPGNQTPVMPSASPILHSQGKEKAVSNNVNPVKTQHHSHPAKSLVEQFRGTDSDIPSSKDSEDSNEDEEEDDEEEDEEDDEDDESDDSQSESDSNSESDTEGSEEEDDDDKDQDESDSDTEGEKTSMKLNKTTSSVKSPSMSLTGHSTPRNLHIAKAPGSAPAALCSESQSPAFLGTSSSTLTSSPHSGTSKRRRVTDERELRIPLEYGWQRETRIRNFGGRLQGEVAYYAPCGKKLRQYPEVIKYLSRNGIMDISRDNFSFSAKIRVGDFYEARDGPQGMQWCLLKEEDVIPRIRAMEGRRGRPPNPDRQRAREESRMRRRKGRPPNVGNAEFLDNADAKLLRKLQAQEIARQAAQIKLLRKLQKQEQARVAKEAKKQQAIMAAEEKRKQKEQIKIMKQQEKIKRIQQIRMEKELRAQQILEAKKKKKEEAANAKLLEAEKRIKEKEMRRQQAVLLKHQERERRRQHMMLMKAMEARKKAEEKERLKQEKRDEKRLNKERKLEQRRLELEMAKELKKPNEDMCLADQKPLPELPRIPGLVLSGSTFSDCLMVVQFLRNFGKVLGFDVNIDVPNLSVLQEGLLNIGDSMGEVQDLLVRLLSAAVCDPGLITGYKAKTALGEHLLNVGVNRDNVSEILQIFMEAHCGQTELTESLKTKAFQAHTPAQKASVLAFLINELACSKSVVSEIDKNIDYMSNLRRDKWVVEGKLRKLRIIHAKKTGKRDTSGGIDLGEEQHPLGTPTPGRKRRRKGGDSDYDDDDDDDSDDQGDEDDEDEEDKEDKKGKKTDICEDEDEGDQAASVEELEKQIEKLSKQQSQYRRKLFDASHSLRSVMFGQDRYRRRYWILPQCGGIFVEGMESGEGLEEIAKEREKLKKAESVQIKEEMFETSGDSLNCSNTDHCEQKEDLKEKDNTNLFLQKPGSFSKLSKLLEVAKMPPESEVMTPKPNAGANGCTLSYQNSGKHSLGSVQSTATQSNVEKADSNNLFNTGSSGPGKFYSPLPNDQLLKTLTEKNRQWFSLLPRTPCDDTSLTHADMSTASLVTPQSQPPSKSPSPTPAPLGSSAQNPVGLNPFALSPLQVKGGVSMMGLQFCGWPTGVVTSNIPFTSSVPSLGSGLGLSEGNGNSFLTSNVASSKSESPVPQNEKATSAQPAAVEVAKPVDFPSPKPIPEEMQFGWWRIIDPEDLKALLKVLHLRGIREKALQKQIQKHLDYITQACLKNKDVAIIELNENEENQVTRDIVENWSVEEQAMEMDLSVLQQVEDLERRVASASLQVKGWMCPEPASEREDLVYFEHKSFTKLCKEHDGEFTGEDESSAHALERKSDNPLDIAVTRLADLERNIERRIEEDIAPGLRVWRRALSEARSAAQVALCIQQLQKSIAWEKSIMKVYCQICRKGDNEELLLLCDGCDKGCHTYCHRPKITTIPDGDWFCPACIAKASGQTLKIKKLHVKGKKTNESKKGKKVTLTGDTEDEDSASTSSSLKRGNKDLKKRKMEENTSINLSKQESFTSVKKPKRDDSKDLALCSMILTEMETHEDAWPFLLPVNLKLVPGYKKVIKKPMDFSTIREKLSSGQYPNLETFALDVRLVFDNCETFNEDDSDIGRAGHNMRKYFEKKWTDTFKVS"}, "source": "PubChem BioAssay AID504333", "about": "(National Center for Advancing Translational Sciences (NCATS), 2011)", "note": "“And” between values parts separate entries of the source, which are not always exact repeats. Identical values can stand only once. The entries are a selection whose mix differs from that of the whole data set. Some results for these compounds are left out of this collection, so the calls shown say nothing about other tests. Results filed as inconclusive are left out. The source made the active and inactive calls. The call rests on the fitted dose curve; in most records, active means well fitted inhibition curve with a large enough effect; inconclusive means small, poorly fitted or top-dose-only effect; inactive means no such curve, though single readings can be large or run the other way. On the % scale 0 is the no-effect control and ±100 the full control effect.", "data": [{"molecular_target": "Bromodomain adjacent to zinc finger domain protein 2B (Homo sapiens) (UniProt Q9UIF8)", "assay": "qHTS Assay for Inhibitors of BAZ2B; further: nearly all actives have a fitted effect of over 60% in size", "details": "AlphaScreen BAZ2B-H3K14Ac peptide displacement; at 114 µM (top of the series) unless noted", "values": [{"smiles": "O=C(NCC1(N2CCCCC2)CCCCC1)c1cc([N+](=O)[O-])ccc1Cl", "activity change, negative = inhibition": "inactive: 10.5%"}, {"smiles": "CN1[C@@H]2CC[C@H]1CC(OC(=O)C(O)(c1ccccc1)c1ccccc1)C2", "note": "(some centres not stated)", "activity change, negative = inhibition": "inactive: -0.117%"}, {"smiles": "CCN(CC)CC(C)C(C)OC(=O)C(O)(c1ccccc1)c1ccccc1", "note": "(configuration not stated)", "activity change, negative = inhibition": "inactive: 0.838%"}, {"smiles": "CN(C)C1(CNC(=O)c2cccc(Cl)c2)CCCCC1", "activity change, negative = inhibition": "inactive: -1.96%"}, {"smiles": "COc1cc(SC)ccc1C(=O)NCC1(N(C)C)CCCCC1", "activity change, negative = inhibition": "inactive: 8.94%"}, {"smiles": "CC(C)N1C(=O)CC2(CCN(CCOC(=O)C(O)(c3ccccc3)c3ccccc3)CC2)C1=O", "activity change, negative = inhibition": "inactive: 1.16% [at 57.1 µM]"}, {"smiles": "Cc1ccc(C(=O)NCC2(N3CCCCC3)CCCCC2)cc1", "activity change, negative = inhibition": "inactive: -12.1%"}, {"smiles": "CN(C)C1(CNC(=O)c2ccccc2F)CCCCC1", "activity change, negative = inhibition": "inactive: -1.6%"}, {"smiles": "Cc1ccccc1C(=O)NCC1(N2CCCCC2)CCCCC1", "activity change, negative = inhibition": "inactive: -11.5%"}, {"smiles": "CN(C)C1(CNC(=O)c2ccccc2[N+](=O)[O-])CCCCC1", "activity change, negative = inhibition": "inactive: -31.1%"}, {"smiles": "CN(C)c1ccc(C(=O)NCC2(N(C)C)CCCCC2)cc1", "activity change, negative = inhibition": "inactive: 3.86%"}, {"smiles": "CN(C)C1CCCC1OC(=O)C(O)(c1ccccc1)c1ccccc1", "note": "(configuration not stated)", "activity change, negative = inhibition": "inactive: 4.92%"}, {"smiles": "CCCCOc1ccccc1C(=O)NCC1(N(C)C)CCCCC1", "activity change, negative = inhibition": "inactive: -12.2%"}, {"smiles": "O=C(NCC1(N2CCCCC2)CCCCC1)c1cc(F)c(F)cc1Cl", "activity change, negative = inhibition": "inactive: 4.65%"}, {"smiles": "COc1ccc(C(=O)NCC2(N(C)C)CCCCC2)cc1", "activity change, negative = inhibition": "inactive: -30.1%"}, {"smiles": "CCOc1cccc(C(=O)NCC2(N(C)C)CCCCC2)c1", "activity change, negative = inhibition": "inactive: -0.738%"}, {"smiles": "CCN1CCCC(OC(=O)C2(O)c3ccccc3C=Cc3ccccc32)C1", "note": "(configuration not stated)", "activity change, negative = inhibition": "inactive: 6.59%"}, {"smiles": "Cc1cc(C(=O)NCC2(N3CCCCC3)CCCCC2)ccc1[N+](=O)[O-]", "activity change, negative = inhibition": "inactive: -14.1%"}, {"smiles": "O=C(NCC1(N2CCCCC2)CCCCC1)c1cccc(Br)c1", "activity change, negative = inhibition": "inactive: 4.92%"}, {"smiles": "CN(C)C1(CNC(=O)c2ccc(Br)cc2)CCCCC1", "activity change, negative = inhibition": "inactive: -26.3%"}, {"smiles": "COc1cc(C(=O)NCC2(N(C)C)CCCCC2)c([N+](=O)[O-])cc1OC", "activity change, negative = inhibition": "inactive: -1.46%"}, {"smiles": "COc1cccc(C(=O)NCC2(N3CCCCC3)CCCCC2)c1", "activity change, negative = inhibition": "inactive: -2.2%"}, {"smiles": "COc1ccc(Cl)cc1C(=O)NCC1(N(C)C)CCCCC1", "activity change, negative = inhibition": "inactive: 11.7%"}, {"smiles": "COc1ccc(C(=O)NCC2(N(C)C)CCCCC2)cc1Cl", "activity change, negative = inhibition": "inactive: -2.93%"}, {"smiles": "O=C(NCC1(N2CCCCC2)CCCCC1)c1cccc(Cl)c1", "activity change, negative = inhibition": "inactive: -5.63%"}, {"smiles": "O=C(OC1CN2CCC1CC2)C(CO)(c1ccccc1)c1ccccc1", "note": "(configuration not stated)", "activity change, negative = inhibition": "inactive: -3.91%"}, {"smiles": "CC(C)COc1ccc(C(=O)NCC2(N(C)C)CCCCC2)cc1", "activity change, negative = inhibition": "inactive: -10.1%"}, {"smiles": "Cc1cccc(C(=O)NCC2(N(C)C)CCCCC2)c1", "activity change, negative = inhibition": "inactive: 0.971%"}, {"smiles": "COc1cc(C(=O)NCC2(N(C)C)CCCCC2)cc(OC)c1OC", "activity change, negative = inhibition": "inactive: 1.91%"}, {"smiles": "COc1ccc(Br)c(C(=O)NCC2(N3CCCCC3)CCCCC2)c1", "activity change, negative = inhibition": "inactive: -4.69%"}, {"smiles": "CC(C)Oc1ccc(C(=O)NCC2(N(C)C)CCCCC2)cc1", "activity change, negative = inhibition": "inactive: -5.47% and inactive: -25.8%"}, {"smiles": "CN(C)c1cccc(C(=O)NCC2(N(C)C)CCCCC2)c1", "activity change, negative = inhibition": "inactive: 4.91%"}]}]}
